Among the data in PubChem BioAssay AID727 (The Scripps Research Institute Molecular Screening Center, 2007) are inhibition values, retold here.

Amino acid sequences for entries named in this document (tags omitted).
UniProt Q05397, whole entry, looked up: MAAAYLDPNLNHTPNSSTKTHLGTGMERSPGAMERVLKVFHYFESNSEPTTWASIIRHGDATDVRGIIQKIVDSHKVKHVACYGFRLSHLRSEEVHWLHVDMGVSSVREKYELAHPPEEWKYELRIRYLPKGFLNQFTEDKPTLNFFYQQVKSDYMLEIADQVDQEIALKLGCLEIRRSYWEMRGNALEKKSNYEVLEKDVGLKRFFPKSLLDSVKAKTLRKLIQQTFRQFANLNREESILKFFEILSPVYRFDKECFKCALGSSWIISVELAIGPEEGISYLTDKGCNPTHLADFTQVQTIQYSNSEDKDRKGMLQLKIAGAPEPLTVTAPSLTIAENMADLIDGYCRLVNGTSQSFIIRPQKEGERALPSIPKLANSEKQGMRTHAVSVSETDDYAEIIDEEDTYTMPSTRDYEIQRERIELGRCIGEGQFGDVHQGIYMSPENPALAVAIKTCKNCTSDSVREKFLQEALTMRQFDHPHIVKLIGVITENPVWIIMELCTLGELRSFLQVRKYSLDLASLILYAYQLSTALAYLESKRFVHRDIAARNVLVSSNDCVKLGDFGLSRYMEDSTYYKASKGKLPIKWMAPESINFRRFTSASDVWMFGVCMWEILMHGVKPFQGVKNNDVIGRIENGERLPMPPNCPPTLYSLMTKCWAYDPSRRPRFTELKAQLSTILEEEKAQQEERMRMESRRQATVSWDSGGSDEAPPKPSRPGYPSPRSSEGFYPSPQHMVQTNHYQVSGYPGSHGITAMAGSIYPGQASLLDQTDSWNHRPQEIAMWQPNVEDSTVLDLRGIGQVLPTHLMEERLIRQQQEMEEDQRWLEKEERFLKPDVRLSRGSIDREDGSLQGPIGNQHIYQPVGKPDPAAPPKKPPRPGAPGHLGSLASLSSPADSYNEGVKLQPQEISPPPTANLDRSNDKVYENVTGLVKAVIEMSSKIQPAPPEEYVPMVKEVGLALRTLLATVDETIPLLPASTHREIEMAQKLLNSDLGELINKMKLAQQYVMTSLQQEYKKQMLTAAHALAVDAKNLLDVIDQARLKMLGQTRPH

Molecules are shown by their SMILES. This is a selection; strong and weak results do not stand in their true shares. Calls of active or inactive are those of the source. Rule as the data show it: active = inhibition above about 19%; inactive = the rest.

The target of this assay is Focal adhesion kinase 1 (Homo sapiens) (UniProt Q05397). Kind of assay: FAK kinase inhibitors, primary screen, biochemical (AID 727).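 Also: 0% = DMSO and 100% = reference compound high control.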 Conditions: biochemical FAK kinase activity assay; active compounds read high;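 tested at 7 µM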.
On to `CCC(C)N(CC(C)C)C(=S)SC(NC(C)=O)C(Cl)(Cl)Cl` (stereo not drawn), for which the inhibition (as a rule, the drop in the measured response relative to a control, in per cent) is inactive: 0.91%.
Regarding `COP1(=S)c2c(C)nn(CCC#N)c2N=C(c2ccc(F)cc2)N1C` (stereo not drawn), the inhibition is inactive: -3.74%.
As for `O=C(COc1ccccc1)OC1CN2CCC1CC2` (stereo not drawn), the inhibition is inactive: 0.63%.
On to `O=C(OC1CN2CCC1CC2)C12CC3CC(CC(C3)C1)C2` (stereo not drawn), for which the inhibition was inactive: -0.01%.
Turning to `ClCCSc1nnc(-c2cccnc2)o1`, the inhibition was inactive: 1.32%.
For `CCN(CC)C(=S)SC(NC=O)C(Cl)(Cl)Cl` (stereo not drawn), the inhibition is inactive: -4.23%.
Take `CCOP1(=S)c2c(C)nn(CCC#N)c2N=C(c2ccc(F)cc2)N1C` (stereo not drawn): the inhibition is inactive: 4.21%.
In the case of `O=[N+]([O-])c1ccc2c(c1)nnn2O`, the inhibition is inactive: -1.14%.
In the case of `CCOP1(=S)c2c(C)nn(CCC#N)c2N=C(c2ccccc2F)N1C` (stereo not drawn), the inhibition is inactive: -0.07%.
In the case of `Cc1cccc(OCC(=O)OC2CN3CCC2CC3)c1` (stereo not drawn), the inhibition was inactive: 0.11%.
As for `CC1(CBr)Cn2c(nc3ccccc3c2=O)S1` (stereo not drawn), the inhibition was inactive: -0.33%.
As to `O=P1(Nc2ccccn2)COc2ccccc2OC1`, the inhibition is inactive: 0.69%.
In the case of `Clc1n[nH]nc1-c1nn[nH][15n]1`, the inhibition is inactive: -0.96%.
For `O=P1(Nc2ncccn2)COc2ccccc2OC1`, the inhibition was inactive: -4.72%.
On to `O=P1(Nc2ccc(Br)cn2)COc2ccccc2OC1`, for which the inhibition was inactive: 0.54%.
Consider `Cc1ccc(OCC(=O)OC2CN3CCC2CC3)cc1` (stereo not drawn), for which the inhibition is inactive: -4.45%.
For `Cc1nn(-c2ccccc2)c2c1P(=O)(N1CCOCC1)N(C)C(c1ccccc1)=N2` (stereo not drawn), the inhibition was inactive: -1.36%.
As for `O=C(OC1CN2CCC1CC2)c1cccc(Cl)c1` (stereo not drawn), the inhibition is inactive: 1.34%.
Then `O=P(Nc1nccs1)(c1ccccc1)c1ccccc1`, with inactive: -4.79%.
With `c1nnnn1CCn1cnnn1`, the inhibition was inactive: -3.48%.
For `O=P1(Nc2nc3ccc(Cl)cc3s2)COc2ccccc2O1` (stereo not drawn), the inhibition was inactive: 2.61%.
On to `CCC(=O)N1C2C3N(C(=O)CC)C1C1N(C(=O)CC)C(C(N1C(=O)CC)N3C(=O)CC)N2C(=O)CC`, for which the inhibition was inactive: 1.13%.
For the molecule `COC(=O)c1cc2c(s1)N=C(c1ccccc1)N(C)P2(=O)N1CCOCC1` (stereo not drawn), the inhibition is inactive: -6.98%.
As for `CCOC(=O)NC(Sc1ccccc1)C(Cl)(Cl)Cl` (stereo not drawn), the inhibition was inactive: 1.82%.
Take `CCOP(=O)(Nc1ccccc1)OCC`: the inhibition was inactive: -0.03%.
Then `Oc1ccccc1CNc1ccccn1`, with inactive: 0.6%; and `Cc1c2non([O-])c-2c(C)[n+](=O)[n+]1[O-]`, with inactive: -5.23%; and `CC(C)CC(=O)NC(Sc1ccc(Cl)cc1)C(Cl)(Cl)Cl` (stereo not drawn), with inactive: -0.45%.
For the molecule `CN1CCCC(OC(=O)C(c2ccccc2)c2ccccc2)C1` (stereo not drawn), the inhibition is inactive: 1.38%.
For `CC1CCN(C(=O)Oc2c(Cl)cc(Cl)c3cccnc23)CC1`, the inhibition was inactive: -3.71%.
In the case of `CCc1nc2c(n1)c1c(non1O)c1c2no[n+]1[O-]`, the inhibition is inactive: -1.34%.
In the case of `CC(=O)N1C2C3N(C(C)=O)C1C1N(C(C)=O)C(C(N1C(C)=O)N3C(C)=O)N2C(C)=O`, the inhibition is inactive: -1.21%.
Regarding `O=[N+]([O-])c1cccc2n[nH]nc12`, the inhibition was inactive: 1.56%.
